Assay results taken from patent US20090105278A1, “Selective inhibitors of human corticosteroid syntheses” (Universitat Des Saarlandes, priority 2004, published 2009).
Where “and” joins values, the source holds several entries; their conditions need not be identical. Equal values may be shown once.

Protein sequences, listed by entry. Tags and fused reporters are not part of them. Lines headed by an entry give the natural chain unless they say otherwise; changes in a name come on top.
UniProt P11511: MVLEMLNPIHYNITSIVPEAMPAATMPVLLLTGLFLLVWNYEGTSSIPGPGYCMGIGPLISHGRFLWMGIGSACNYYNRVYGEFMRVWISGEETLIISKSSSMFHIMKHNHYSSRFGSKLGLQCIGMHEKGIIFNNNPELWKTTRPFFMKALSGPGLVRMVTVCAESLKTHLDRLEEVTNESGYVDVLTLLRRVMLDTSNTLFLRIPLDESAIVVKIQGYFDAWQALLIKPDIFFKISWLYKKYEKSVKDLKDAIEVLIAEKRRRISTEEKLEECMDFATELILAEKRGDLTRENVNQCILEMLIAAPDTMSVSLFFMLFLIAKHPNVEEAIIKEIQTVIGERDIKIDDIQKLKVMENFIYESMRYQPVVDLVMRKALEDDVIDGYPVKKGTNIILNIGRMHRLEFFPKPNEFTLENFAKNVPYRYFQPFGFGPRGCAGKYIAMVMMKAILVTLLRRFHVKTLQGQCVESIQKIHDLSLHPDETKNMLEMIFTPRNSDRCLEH

Assays:
[1] = molecular target: T1, human CYP11B1 (Homo sapiens, UniProt P15538); test: V79 MZh 11B1 cells inhibition test; conditions: read-out: IC50 V79 11B1 hCYP11B1; hamster fibroblasts which express human CYP11B1; deoxycorticosterone substrate 100 nM
T1 sequence (P15538 25-503): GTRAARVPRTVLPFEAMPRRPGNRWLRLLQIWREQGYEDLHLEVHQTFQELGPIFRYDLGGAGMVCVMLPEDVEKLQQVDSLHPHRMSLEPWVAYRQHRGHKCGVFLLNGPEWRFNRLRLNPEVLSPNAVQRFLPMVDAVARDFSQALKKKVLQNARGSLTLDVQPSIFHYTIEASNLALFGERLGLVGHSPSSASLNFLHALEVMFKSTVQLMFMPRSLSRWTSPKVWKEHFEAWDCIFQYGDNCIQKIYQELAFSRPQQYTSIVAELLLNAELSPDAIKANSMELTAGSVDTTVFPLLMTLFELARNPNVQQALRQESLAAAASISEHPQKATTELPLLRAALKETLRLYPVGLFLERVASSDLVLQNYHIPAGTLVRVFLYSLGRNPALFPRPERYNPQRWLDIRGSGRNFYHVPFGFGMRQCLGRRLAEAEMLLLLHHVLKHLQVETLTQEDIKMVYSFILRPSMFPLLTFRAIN

[2] = molecular target: T2, human CYP11B2 (Homo sapiens, UniProt P19099); test: V79 MZh 11B2 cells inhibition test; type: cell-based; set-up: expressed in transfected cells; host or cells: V79 MZh11B2 (Chinese hamster lung fibroblasts); conditions: hamster fibroblasts which express human CYP11B2; deoxycorticosterone substrate 100 nM; read-out: IC50 V79 11B2 hCYP11B2
T2 sequence (P19099 25-503): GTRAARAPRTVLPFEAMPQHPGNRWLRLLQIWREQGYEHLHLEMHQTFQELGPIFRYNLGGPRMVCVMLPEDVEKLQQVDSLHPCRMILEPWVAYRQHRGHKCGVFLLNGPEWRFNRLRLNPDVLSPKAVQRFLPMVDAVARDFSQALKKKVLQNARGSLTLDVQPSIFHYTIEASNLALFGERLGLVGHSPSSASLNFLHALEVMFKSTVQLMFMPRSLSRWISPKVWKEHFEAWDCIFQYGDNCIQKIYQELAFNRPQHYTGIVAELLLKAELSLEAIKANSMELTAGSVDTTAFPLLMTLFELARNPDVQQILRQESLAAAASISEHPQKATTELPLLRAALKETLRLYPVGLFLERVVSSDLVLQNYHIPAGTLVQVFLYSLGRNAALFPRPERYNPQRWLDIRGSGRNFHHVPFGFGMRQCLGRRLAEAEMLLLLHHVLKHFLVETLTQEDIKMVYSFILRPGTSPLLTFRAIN

[3] = molecular target: T3, human placental CYP19 (Homo sapiens, UniProt P11511); test: IC50 of CYP19 (human placental microsomes); type: biochemical
T3 construct: The enzyme was obtained from the microsome fraction of fresh human placenta; from tissue; host or cells: human placenta, microsomal fraction

Substance	IC50 [1]	IC50 [2]	IC50 [3] [nM]
5-[(Z)-3,4-Dihydronaphth-1(2H)-ylidenemethyl]-1H-imidazolium oxalate [Compound 41b]	3.3 nM	9.6 nM	
5-[(Z)-(5-Bromo-2,3-dihydro-1H-indene-1-ylidene)methyl]-1H-imidazolium oxalate [Compound 49b]			100
5-[(Z)-(5-Chloro-2,3-dihydro-1H-indene-1-ylidene)methyl]-1H-imidazolium oxalate [Compound 48b]	20 nM and 19.5 nM	4 nM and 3.7 nM	
5-[(Z)-(5-Fluoro-2,3-dihydro-1H-indene-1-ylidene)methyl]-1H-imidazolium oxalate [Compound 47b]	11.2 nM	13.9 nM	20
